# Values of other authors in patent publication US5770363A, “Methods for diagnosing human male infertility” (priority 1995, dated 1998).
# System: rats
# Settings: cited from earlier work
# [1] = males treated with 1,3-dinitrobenzene
structure (smiles),measurement,setting,value
O=[N+]([O-])c1cccc([N+](=O)[O-])c1,fertility,"1.5 mg/kg/day for 10 weeks, rats",diminished
same,effect on spermatogenesis,"1.5 mg/kg/day for 10 weeks, rats, normal sperm counts",does not significantly inhibit spermatogenesis
same,implantation sites in female rats mated to treated males,[1],no implantation sites were found
same,vaginal smears from female rats mated to treated males,[1],sperm-positive
